Data on one compound can be found in patent US5225543A, “Receptors method for purification of G protein-linked” (priority 1991, dated 1993).

Protein sequences, listed by entry. Tags and fused reporters are not part of them.
UniProt P30680, whole entry: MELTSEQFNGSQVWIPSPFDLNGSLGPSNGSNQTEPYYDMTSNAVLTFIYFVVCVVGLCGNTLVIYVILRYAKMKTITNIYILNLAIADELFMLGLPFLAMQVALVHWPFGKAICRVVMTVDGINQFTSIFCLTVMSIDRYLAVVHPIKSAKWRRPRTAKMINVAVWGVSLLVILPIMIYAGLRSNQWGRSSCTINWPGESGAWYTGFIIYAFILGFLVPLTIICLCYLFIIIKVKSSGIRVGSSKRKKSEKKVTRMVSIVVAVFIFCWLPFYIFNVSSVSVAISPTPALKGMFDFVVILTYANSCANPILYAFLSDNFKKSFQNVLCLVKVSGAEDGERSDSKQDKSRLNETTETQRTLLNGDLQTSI

This test has as its target SRIF receptor (GH4 C1 membranes) (Rattus norvegicus, UniProt P30680). Briefly: Purification method as receptor assay: binding of biotinyl-S28 to GH4 C1 membranes (FIG. 10). To be noted: 10,000 nM non-biotinylated SRIF-14.

As for `C[C@H](N)C(=O)NCC(=O)N[C@H]1CSSC[C@@H](C(=O)O)NC(=O)[C@H](CO)NC(=O)[C@H]([C@@H](C)O)NC(=O)[C@H](Cc2ccccc2)NC(=O)[C@H]([C@@H](C)O)NC(=O)[C@H](CCCCN)NC(=O)[C@H](Cc2c[nH]c3ccccc23)NC(=O)[C@H](Cc2ccccc2)NC(=O)[C@H](Cc2ccccc2)NC(=O)[C@H](CC(N)=O)NC(=O)[C@H](CCCCN)NC1=O`, the “competition of 10 nM B28 binding (75-95,000 MW glycoprotein)” value was “competed out of the binding pocket”.
